Experimental data from PubChem BioAssay (NCI).
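Step 1: Grow cells in 96-well plates. Step 2: Expose to compound for 48 hours at 5 concentrations. Step 3: Interpolate endpoints linearly; if unreached, use highest concentration. TGI marks complete inhibition of growth.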

Experiments:
Assay in all cases: DTP human tumour cell line panel, 48 h
M19-MEL melanoma = tested on: M19-MEL melanoma
COLO 205 colon = tested on: COLO 205 colon
SNB-19 CNS = tested on: SNB-19 CNS
DLD-1 colon = tested on: DLD-1 colon
NCI-H23 lung = tested on: NCI-H23 lung
SNB-75 CNS = tested on: SNB-75 CNS
ACHN renal = tested on: ACHN renal
KM12 colon = tested on: KM12 colon
NCI-H460 lung = tested on: NCI-H460 lung
MALME-3M melanoma = tested on: MALME-3M melanoma
UACC-257 melanoma = tested on: UACC-257 melanoma
HT29 colon = tested on: HT29 colon
SK-OV-3 ovarian = tested on: SK-OV-3 ovarian
CCRF-CEM leukemia = tested on: CCRF-CEM leukemia
PC-3 prostate = tested on: PC-3 prostate
NCI-H322M lung = tested on: NCI-H322M lung
OVCAR-3 ovarian = tested on: OVCAR-3 ovarian
HS 578T breast = tested on: HS 578T breast
SN12C renal = tested on: SN12C renal
MDA-MB-435 = tested on: MDA-MB-435
MCF7 breast = tested on: MCF7 breast
HOP-92 NSCLC = tested on: HOP-92 NSCLC
SK-MEL-2 melanoma = tested on: SK-MEL-2 melanoma
SF-268 CNS = tested on: SF-268 CNS
DU-145 prostate = tested on: DU-145 prostate
UO-31 renal = tested on: UO-31 renal
NCI-H522 lung = tested on: NCI-H522 lung
M14 melanoma = tested on: M14 melanoma
UACC-62 melanoma = tested on: UACC-62 melanoma
DMS 273 small cell lung = tested on: DMS 273 small cell lung
LXFL 529 NSCLC = tested on: LXFL 529 NSCLC
MDA-MB-231 breast = tested on: MDA-MB-231 breast
OVCAR-4 ovarian = tested on: OVCAR-4 ovarian
CAKI-1 renal = tested on: CAKI-1 renal
SR leukemia = tested on: SR leukemia
SF-295 CNS = tested on: SF-295 CNS
786-0 renal = tested on: 786-0 renal
A498 renal = tested on: A498 renal
U251 CNS = tested on: U251 CNS
BT-549 breast = tested on: BT-549 breast
SNB-78 CNS = tested on: SNB-78 CNS
SW-620 colon = tested on: SW-620 colon
EKVX NSCLC = tested on: EKVX NSCLC
RXF 393 renal = tested on: RXF 393 renal
K-562 leukemia = tested on: K-562 leukemia
HCT-116 colon = tested on: HCT-116 colon
HL-60(TB) leukemia = tested on: HL-60(TB) leukemia
HCC-2998 colon = tested on: HCC-2998 colon
MDA-N = tested on: MDA-N
TK-10 renal = tested on: TK-10 renal
HOP-18 NSCLC = tested on: HOP-18 NSCLC
SK-MEL-28 melanoma = tested on: SK-MEL-28 melanoma
HCT-15 colon = tested on: HCT-15 colon
LOX IMVI melanoma = tested on: LOX IMVI melanoma
OVCAR-8 ovarian = tested on: OVCAR-8 ovarian
OVCAR-5 ovarian = tested on: OVCAR-5 ovarian
MOLT-4 leukemia = tested on: MOLT-4 leukemia
SF-539 CNS = tested on: SF-539 CNS
T-47D breast = tested on: T-47D breast
NCI-H226 lung = tested on: NCI-H226 lung
SK-MEL-5 melanoma = tested on: SK-MEL-5 melanoma
A549 NSCLC = tested on: A549 NSCLC
KM20L2 colon = tested on: KM20L2 colon
IGROV1 ovarian = tested on: IGROV1 ovarian
RPMI-8226 leukemia = tested on: RPMI-8226 leukemia
HOP-62 NSCLC = tested on: HOP-62 NSCLC

For `CC1CC[P+](c2ccccc2)(c2ccccc2)c2c1ccc1ccccc21` (stereo unspecified), the TGI (M19-MEL melanoma) was 16.4 µM, the TGI (COLO 205 colon) was 2.27 µM and the TGI (SNB-19 CNS) was 28.2 µM. It also gave a TGI (DLD-1 colon) of 95.1 µM, a TGI (NCI-H23 lung) of 6.62 µM and a TGI (SNB-75 CNS) of 8.03 µM. For the same compound, the TGI (ACHN renal) was 45.3 µM, the TGI (KM12 colon) was 13.3 µM and the TGI (NCI-H460 lung) was 12.8 µM. It also gave a TGI (MALME-3M melanoma) of 20.5 µM, a TGI (UACC-257 melanoma) of 5.15 µM and a TGI (HT29 colon) of 12.5 µM. It also gave a TGI (SK-OV-3 ovarian) of 32.7 µM, a TGI (CCRF-CEM leukemia) of over 100 µM and a TGI (PC-3 prostate) of 6.68 µM. For the same compound, the TGI (NCI-H322M lung) was 58.1 µM, the TGI (OVCAR-3 ovarian) was 40.6 µM and the TGI (HS 578T breast) was 8.35 µM. It also gave a TGI (SN12C renal) of 13.8 µM, a TGI (MDA-MB-435) of 12.1 µM and a TGI (MCF7 breast) of 17.2 µM. It also gave a TGI (HOP-92 NSCLC) of 4.77 µM, a TGI (SK-MEL-2 melanoma) of 7.27 µM and a TGI (SF-268 CNS) of 28.9 µM. The TGI (DU-145 prostate) was 61.2 µM, the TGI (UO-31 renal) was 49.5 µM and the TGI (NCI-H522 lung) was 11.7 µM. For the same compound, the TGI (M14 melanoma) was 16.7 µM, the TGI (UACC-62 melanoma) was 14.9 µM and the TGI (DMS 273 small cell lung) was 3.08 µM. For the same compound, the TGI (LXFL 529 NSCLC) was 13.9 µM, the TGI (MDA-MB-231 breast) was 27.9 µM and the TGI (OVCAR-4 ovarian) was 56.9 µM. For the same compound, the TGI (CAKI-1 renal) was 22.3 µM, the TGI (SR leukemia) was 32.6 µM and the TGI (SF-295 CNS) was 21.6 µM. It also gave a TGI (786-0 renal) of 86.6 µM, a TGI (A498 renal) of 29.7 µM and a TGI (U251 CNS) of 9.66 µM. It also gave a TGI (BT-549 breast) of 7.08 µM, a TGI (SNB-78 CNS) of 14.6 µM and a TGI (SW-620 colon) of 21.9 µM. The TGI (EKVX NSCLC) was 98.4 µM, the TGI (RXF 393 renal) was 36.4 µM and the TGI (K-562 leukemia) was over 100 µM. The TGI (HCT-116 colon) was 10.6 µM, the TGI (HL-60(TB) leukemia) was 24.8 µM and the TGI (HCC-2998 colon) was 29.8 µM. It also gave a TGI (MDA-N) of 8.25 µM, a TGI (TK-10 renal) of 55 µM and a TGI (HOP-18 NSCLC) of 10.8 µM. The TGI (SK-MEL-28 melanoma) was 17.4 µM, the TGI (HCT-15 colon) was 94.2 µM and the TGI (LOX IMVI melanoma) was 13.6 µM. For the same compound, the TGI (OVCAR-8 ovarian) was 9.1 µM, the TGI (OVCAR-5 ovarian) was 43.5 µM and the TGI (MOLT-4 leukemia) was 76.6 µM. For the same compound, the TGI (SF-539 CNS) was 30.6 µM, the TGI (T-47D breast) was 35.3 µM and the TGI (NCI-H226 lung) was 37.4 µM. It also gave a TGI (SK-MEL-5 melanoma) of 10.7 µM, a TGI (A549 NSCLC) of 61.4 µM and a TGI (KM20L2 colon) of 13.5 µM. The TGI (IGROV1 ovarian) was 19.7 µM, the TGI (RPMI-8226 leukemia) was 37 µM and the TGI (HOP-62 NSCLC) was 21.1 µM.
